# Yeast mating assay 2: variants of the scFv Ab-95

Data: MIT Lincoln Laboratory AlphaSeq set, Engelhart et al. 2022, doi:10.1038/s41597-022-01779-4, as distributed in FLAb.

The target is the same throughout: PDVDLGDISGINAS, from the HR2 region of SARS-CoV-2 spike.

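Library AAYL52 holds single substitutions and randomly drawn double and triple substitutions in the CDRs. The assay is AlphaSeq: two haploid yeast populations carry antibody and antigen on their surface. The frequency of each diploid, read from paired DNA barcodes, reflects how well the two displayed proteins bind. Each replicate has its own calibration line, from reference interactions of the BCL2 family. There are three technical replicates.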

The variants keep the heavy chain, the linker and the frameworks of Ab-95 (scFv order VH, a 15-residue (Gly4Ser)3 linker, VL).
VH: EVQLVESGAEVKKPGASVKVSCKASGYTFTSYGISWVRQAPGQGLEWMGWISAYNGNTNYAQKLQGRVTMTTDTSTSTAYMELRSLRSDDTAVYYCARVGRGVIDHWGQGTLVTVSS
VL: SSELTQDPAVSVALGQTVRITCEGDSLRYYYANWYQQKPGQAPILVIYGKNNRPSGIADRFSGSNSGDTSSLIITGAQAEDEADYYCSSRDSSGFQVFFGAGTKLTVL

Variants are written as CDR1, CDR2 and CDR3 of the light chain (limits as in the source). Parent: EGDSLRYYYAN, GKNNRPS, SSRDSSGFQVF. The read-out is the apparent dissociation constant on a log10 scale (nM): the lower, the stronger. Replicates are averaged; those with no signal do not enter the mean. "not detected" means that the variant was in the library but no mating with the target was seen in any replicate; the authors take this as a sign of poor binding, and no number exists. Nonspecific signal, from three strains lacking the peptide, appeared in 28% of pairings of library AAYL52, centred on 3.91 (5% of these signals below 2.90); values are not corrected for it.

| log10 Kd (nM), mean | replicates with signal | CDR-L1 | CDR-L2 | CDR-L3 |
|---|---|---|---|---|
| 3.74 | 1/3 | EGDSLRYYYAN | CKNNRPS | SSVDSSGFTVF |
| 3.33 | 3/3 | EGDSLRYYVAI | GKINRPS | SSRDSSGFQVF |
| 3.47 | 2/3 | EGDSLRYYLNN | GKNNRPS | SSRDSKGFQVF |
| 3.52 | 3/3 | KGDSLRYYYAN | GKNWRPS | SSRDSSGFQVI |
| 3.60 | 2/3 | NGDCLDYYYAN | GKNNRPS | SSRDSSGFQVF |
| not detected | 0/3 | EGDNLRYYYAN | GKNNRQS | SSRDSSEFQVF |
| 4.60 | 2/3 | EGDSLRYPYAN | GKNNRRS | SSRDHSGFQVF |
| 2.19 | 3/3 | EGDSLRYHYAN | GKNNRPY | SSRDSSGFGVF |
| not detected | 0/3 | EGDSLRYYYAN | GKNNGPS | ISRDSSGYQVF |
| 4.18 | 2/3 | EGDSLRYYMAN | GKNNRPS | ISRDYSGFQVF |
| 4.07 | 2/3 | EGDSLRYYYAN | GKLNRPS | SSRQSSGFQVW |
| 2.90 | 3/3 | EYDSLRYIYIN | GKNNRPS | SSRDSSGFQVF |
| 1.88 | 3/3 | EGDSLRYMYAN | GKNIRPS | SSRDSLGFQVF |
| 3.25 | 1/3 | EGDSLRYYYAN | GKNNRPI | SSRTSLGFQVF |
| 3.07 | 3/3 | EGDSLRYYYAN | GKNIRYS | SSRDSSGRQVF |
| not detected | 0/3 | EGDSTRYYYAN | GKNNRPS | RNRDSSGFQVF |
| not detected | 0/3 | EGDSLRYYYAN | GKPHRPS | SSRDSPGFQVF |
| 3.87 | 3/3 | EGDSLRYYYAN | GKINRPS | ESRDSEGFQVF |
| 2.80 | 3/3 | MGDSLRYYYAN | GKNKRPS | SSRDSSGFQVF |
| 1.83 | 3/3 | EGDSLRYHYAN | GKNNRPS | SSRDSSGRCVF |
| not detected | 0/3 | EGDSLRYYYAN | GKNNRPC | WSRDSSGFQNF |
| not detected | 0/3 | EGDILRYYYAN | GKNMRPS | DSRDSSGFQVF |
| 2.85 | 1/3 | EGDSLRYYYAN | GLNWRPS | SSRDSSGFQMF |
| 2.73 | 3/3 | EGDSLRYYYAN | GKNNRPI | SVRDSSGFQVG |
| 2.02 | 3/3 | EGDSIRYYEAN | GKNNRPS | SSRDSSWFQVF |
| 3.99 | 2/3 | NGDSLRYYYAN | GKNHRPS | SSYDSSGFQVF |
| 3.59 | 3/3 | EGDWLRYYYAN | GENNRPS | SSRDYSGFQVF |
| 2.26 | 3/3 | EGLSLRYPYAN | GKNNRPS | SSRDHSGFQVF |
| 3.57 | 3/3 | EGDSLRYYYAN | GKNNRMV | SSRDSSGFDVF |
| 4.44 | 1/3 | EGDSLRYYYSN | GKNNRPS | AFRDSSGFQVF |
| 3.09 | 3/3 | YFDSLRYDYAN | GKNNRPS | SSRDSSGFQVF |
| 4.69 | 2/3 | EVDSLRYYYAN | GYNNRPS | SSRDSSGFQVF |
| 3.64 | 2/3 | EGDSLRYYYAN | GKGNRPS | VSRDSSGFQVN |
| 3.74 | 3/3 | EGDSYRYYYAN | GKNTRPS | SSRDSDGFQVF |
| 4.26 | 2/3 | ENDSLRYYIAN | GKNNRPS | SSRDSSGFDVF |
| 3.05 | 3/3 | EGDSLRYYKAN | GKNNRPS | SYRDSSGYQVF |
| 1.68 | 3/3 | PRDSLRDYYAN | GKNNRPS | SSRDSSGFQVF |
| 4.17 | 3/3 | EGDSLRYYYAN | GKWNRPS | SSRDSSKFGVF |
| 3.02 | 3/3 | EGDSLRYYSTN | GKNHRPS | SSRDSSGFQVF |
| not detected | 0/3 | EGDSLRYYYAK | GKNNRMS | SSRDSEGFQVF |
| 4.75 | 2/3 | EGDSLRYYYAN | GKYNRPS | SSRDSSGIQVF |
| 3.54 | 3/3 | EGDSLRYYYAN | GKCNRPS | NSRDSSVFQVF |
| 2.91 | 3/3 | EGDSDRYYYAN | GKNNRPD | MSRDSSGFQVF |
| 3.25 | 2/3 | EGQSLRYIYAN | GKNNRPS | SSCDSSGFQVF |
| 3.07 | 3/3 | EGDSLRYYYAN | GKGNRPS | NSRDSSGWQVF |
| 4.54 | 3/3 | EGDSLRYYYAN | GKNNCFS | SSRDSSDFQVF |
| 1.24 | 3/3 | EGGSLRYTYAN | GKNNRPS | SSRDSSGFQVF |
| not detected | 0/3 | EGYSLRYYYAN | GKQNRPS | CSRDSSGFQVF |
| 3.70 | 2/3 | NIDSLRYYYAN | GKNNRPS | SSRDWSGFQVF |
| 4.38 | 2/3 | EGDSLRYYYAN | GKNNYPS | SSRVSSGFLVF |
| 2.54 | 3/3 | EGDSLRYMYAN | GKNNRPP | SSRDSSAFQVF |
| 3.64 | 2/3 | EGDSLRYYHAN | GKNNRVS | SSRDSSGFIVF |
| 1.53 | 3/3 | EGDSLRYFDAN | GKENRPS | SSRDSSGFQVF |
| not detected | 0/3 | YGDSLRYYYAN | GKNNRPS | YSRDKSGFQVF |
| 3.93 | 2/3 | EGDSLRYYYAN | GKNNDPS | SYRFSSGFQVF |
| 4.04 | 2/3 | EGDLLRYYYAN | GKNNRPS | PSRDSSGFQVF |
| 3.16 | 3/3 | EGDSNRYYYAN | GKNNRPS | SSRDERGFQVF |
| 2.69 | 3/3 | EGDSIRYYYAN | GKNNRPS | SSRDSSGYQVF |
| not detected | 0/3 | EGDSLRYYYAN | GKNHRPS | SSMDSSGFQVK |
| 1.94 | 3/3 | CGDFLRYHYAN | GKNNRPS | SSRDSSGFQVF |
| not detected | 0/3 | EGGSLRYYYAN | EKNNRPS | SSRDSSLFQVF |
| 2.76 | 3/3 | EGPSLRYYYAN | GKNNRPS | SSGDSSGFQTF |
| 4.00 | 1/3 | EGDSLRYYLAN | GKNNDPS | SSRDSSGFVVF |
| 4.45 | 3/3 | MIDSLRYYYAG | GKNNRPS | SSRDSSGFQVF |
| 3.96 | 2/3 | EGDSLRYYYAN | GKNNPPS | SSRNSSGFHVF |
| not detected | 0/3 | EGLSLRYYCAM | GKNNRPS | SSRDSSGFQVF |
| 4.75 | 1/3 | EGDSLRYYYAP | GKNNRPS | SSRDSPGCQVF |
| 4.16 | 2/3 | EGDSLRYYYAN | GKNNEPN | SSRDSSGFQVF |
| 2.83 | 3/3 | EGDSLRYWYAN | GKNNRPS | SSRDHTGFQVF |
| not detected | 0/3 | EGDSLRYYYAM | GKNNRPS | SSWDSSGFQVF |
| 3.31 | 3/3 | EGDSLRFYYAN | GVNNRPS | SSRDSSGSQVF |
| 3.93 | 1/3 | EGDSLRYYYAN | GKNNRPS | WSRYSSGFEVF |
| 4.69 | 3/3 | PGDSLRYYYAS | GKNNRPS | SSRDSSSFQVF |
| 3.93 | 2/3 | WGDSLRYYYAG | GKNNRWS | SSRDSSGFQVF |

A selection of 10 entries from above:

CDR-L1	CDR-L2	CDR-L3	log10 Kd (nM), mean	replicates with signal
NGDSLRYYYAN	GKNHRPS	SSYDSSGFQVF	3.99	2/3
EGDNLRYYYAN	GKNNRQS	SSRDSSEFQVF	not detected	0/3
EGDLLRYYYAN	GKNNRPS	PSRDSSGFQVF	4.04	2/3
WGDSLRYYYAG	GKNNRWS	SSRDSSGFQVF	3.93	2/3
EGQSLRYIYAN	GKNNRPS	SSCDSSGFQVF	3.25	2/3
EGDSLRFYYAN	GVNNRPS	SSRDSSGSQVF	3.31	3/3
PGDSLRYYYAS	GKNNRPS	SSRDSSSFQVF	4.69	3/3
EGDSLRYPYAN	GKNNRRS	SSRDHSGFQVF	4.60	2/3
EGLSLRYPYAN	GKNNRPS	SSRDHSGFQVF	2.26	3/3
MGDSLRYYYAN	GKNKRPS	SSRDSSGFQVF	2.80	3/3